Measured values published in patent US20230158156A1, “BIFUNCTIONAL MOLECULES AND METHODS OF USING THEREOF” (Flagship Pioneering, Inc., priority 2020, published 2023).

Chains of the proteins cited; added tags and fusions are not shown.
UniProt Q06187, whole entry, species assumed: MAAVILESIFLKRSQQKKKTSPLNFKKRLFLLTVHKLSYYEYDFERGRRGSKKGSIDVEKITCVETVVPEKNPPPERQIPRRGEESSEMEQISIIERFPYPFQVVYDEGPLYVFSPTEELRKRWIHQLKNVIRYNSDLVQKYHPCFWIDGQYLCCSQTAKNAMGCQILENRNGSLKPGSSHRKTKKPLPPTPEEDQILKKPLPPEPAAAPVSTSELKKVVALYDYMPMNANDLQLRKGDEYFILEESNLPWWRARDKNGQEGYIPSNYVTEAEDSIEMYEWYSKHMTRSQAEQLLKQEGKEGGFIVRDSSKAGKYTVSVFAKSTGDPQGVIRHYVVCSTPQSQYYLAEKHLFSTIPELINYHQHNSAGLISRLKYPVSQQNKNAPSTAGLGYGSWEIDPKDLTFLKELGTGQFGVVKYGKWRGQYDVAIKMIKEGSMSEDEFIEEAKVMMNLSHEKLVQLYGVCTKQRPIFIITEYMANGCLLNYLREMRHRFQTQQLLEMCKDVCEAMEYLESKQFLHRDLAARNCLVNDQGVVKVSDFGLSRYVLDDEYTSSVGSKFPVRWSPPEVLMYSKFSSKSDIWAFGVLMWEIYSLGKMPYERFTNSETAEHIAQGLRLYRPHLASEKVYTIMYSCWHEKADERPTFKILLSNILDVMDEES

Target: purified BTK protein and Cy5-labeled IVT RNA (Homo sapiens, UniProt Q06187)
Experiment: In vitro ternary complex formation assay (PAGE gel shift)
Format: binding
Details: 10 pmol ASOi, PBS, room temperature 90 minutes; for supershift of BTK protein band in the presence of Cy5-IVT RNA (ternary complex formation): 2 pmol BTK protein, 20 pmol Cy5-labeled IVT RNA
Experimental: A ternary complex is a complex containing three different molecules bound together. […] An inhibitor-conjugated antisense oligonucleotide (hereafter referred to as ASOi) (i.e., EGFR ASO conjugated to Ibrutinib-MPEA) was mixed with the protein target of the inhibitor (i.e., BTK) and the RNA target of the ASO (i.e., EGFR RNA), and allowed to react with the protein and hybridize with the RNA target to form a ternary complex including all 3 molecules. The same is also performed with MALATI targeting ASO with the sequence 5′CGUUAACUAGGCUUUA3′ (SEQ ID NO: 1) conjugated at the 5′ end with Ibrutinib (BTK inhibitor; BTKi) and the RNA target of the ASO (i.e., MALATI RNA) as shown in FIG. 2A. FIG. 2B depicts the gel analysis results detecting the formation of the ternary complex, binding of the ASOi to the target protein caused the protein to migrate higher (shift up) on a polyacrylamide gel because of its increased molecular weight. […] Furthermore, labeling the target RNA with a fluorescent dye allowed direct visualization of the target RNA in the supershifted protein complex.
In one reaction (#1), 10 pmol of the MALATI targeting ASO (hereafter called N33-ASOi) conjugated at the 5′ end with Ibrutinib was mixed in PBS with 2 pmol purified BTK protein, 200 pmol yeast rRNA (as non-specific blocker) and 20 pmol Cy5-labeled IVT RNA of the following sequence:
All reactions were incubated at room temperature for 90 minutes protected from light, then mixed with a loading buffer containing 0.5% SDS final and 10% glycerol final, and complexes separated by PAGE on a Bis-Tris 4-12% gel including an IRDye700 pre-stained protein molecular weight marker (LiCor). Immediately following electrophoresis, the gel was imaged using a LiCor Odyssey system with the 700 nm channel to identify the position of Cy5-IVT-RNA bands and MW marker. Next, proteins in the gel were stained using InstantBlue colloidal Coomassie stain (Expedeon) and re-imaged using transmitted light. […]

N33-ASOi: MALATI targeting ASO 5′CGUUAACUAGGCUUUA3′ (SEQ ID NO: 1) conjugated at the 5′ end with Ibrutinib (antisense cguuaacuaggcuuua; 5' Ibrutinib conjugate; antisense oligonucleotide (ASO))
supershift of BTK protein band in the presence of Cy5-IVT RNA (ternary complex formation): observed with N33-ASOi | increase in MW of the BTK protein band (binary complex formation) (2 pmol purified BTK protein, Coomassie stain): increase in MW of the BTK protein band

SCR-ASOi: non-complementary RNA oligo 5′AGAGGUGGCGUGGUAG3′ (SEQ ID NO:21) conjugated at the 5′ end with Ibrutinib (agagguggcgugguag; 5' Ibrutinib conjugate; SCR-ASOi) [reference compound]
supershift of BTK protein band in the presence of Cy5-IVT RNA (ternary complex formation): not with SCR-ASOi
